Apparent affinities of Ab-14 variants for a coronavirus HR2 peptide

Target: peptide PDVDLGDISGINAS, taken from heptad repeat 2 (HR2) of SARS-CoV-2 spike.

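Variants in AAYL50 differ from the parent at up to three CDR positions; double and triple changes were sampled at random. In AlphaSeq, yeast of one mating type display the scFv and yeast of the other type display the target. Mating (16 h, 30 °C) was followed by selection of diploids and sequencing of their barcodes. The ratio of observed to expected reads was calibrated, replicate by replicate, on BCL2-family standards whose Kd was known from biolayer interferometry. The assay was run in three technical replicates.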

Parent: Ab-14, a human scFv built as VH, the linker GGGGSGGGGSGGGGS, VL. Only the CDRs of the light chain vary.
VH: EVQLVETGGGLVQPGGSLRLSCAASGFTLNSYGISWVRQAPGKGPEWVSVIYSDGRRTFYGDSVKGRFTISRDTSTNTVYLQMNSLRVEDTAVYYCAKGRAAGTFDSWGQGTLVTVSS
VL: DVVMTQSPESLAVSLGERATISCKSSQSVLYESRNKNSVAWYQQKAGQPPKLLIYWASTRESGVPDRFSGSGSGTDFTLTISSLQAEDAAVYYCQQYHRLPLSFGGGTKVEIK

Substitutions are numbered in sequence along the VL above, starting at 1 (not Kabat). Every variant below is changed at S38 of the VL (sequential numbering). Kd is apparent (estimated from mating counts) and averaged on the log scale over replicates with a signal. Smaller is tighter. An entry "nd" has no value in the source: the pair was not observed among the diploids in any replicate. This suggests poor binding but is not conclusive. Background: pairings of library AAYL50 with three empty control strains gave a value in 18% of cases (median 15 µM, 5th percentile 970 nM). Values in that range, when seen in few replicates, are hard to tell from nonspecific mating.

For E32V/R34T/S38N, the assay gave 120 nM (3 of 3 replicates). Variant R34G/N35A/S38D gave 9.1 nM (3 of 3 replicates). For S38K/V39H, the assay gave 38 µM (1 of 3 replicates). For S38Y/V39E/Q96E, the assay gave nd (0 of 3 replicates). With Y31G/E32H/S38V the result was nd (0 of 3 replicates). For S38P/T59W/E61G, the assay gave 23 µM (2 of 3 replicates). For R34P/S38H/H98M, the assay gave nd (0 of 3 replicates). For Y31R/S38G/A40H, the assay gave 15 µM (3 of 3 replicates). With R34P/S38G/W56K the result was 8.4 nM (3 of 3 replicates).

Variant V29H/S38V/P101Q gave 6.2 µM (1 of 3 replicates). Variant S38P/R60I showed nd (0 of 3 replicates). Variant S26E/S38I/S58Y gave 45 µM (2 of 3 replicates). For S38R/W56V/L100E, the assay gave 15 µM (2 of 3 replicates). For S38W/Q95H, the assay gave nd (0 of 3 replicates). Variant S38A/S62T/L102M showed 150 nM (3 of 3 replicates). Variant L30E/E32L/S38C gave 140 nM (3 of 3 replicates). Variant N37T/S38Q/S58C showed 19 µM (1 of 3 replicates). Variant S38N/S58W/Q95D gave 810 nM (3 of 3 replicates).

For S38F/P101L/S103V, the assay gave 18 µM (2 of 3 replicates). With N37D/S38F/T59E the result was 21 µM (2 of 3 replicates). With S26Y/Y31L/S38N the result was 270 nM (3 of 3 replicates). Variant S38L/T59S/L102Q gave nd (0 of 3 replicates). Variant S28V/S38R/T59P gave 55 µM (2 of 3 replicates). Variant N37M/S38L/Q95W gave nd (0 of 3 replicates). For L30F/S38D/A57F, the assay gave 13 µM (2 of 3 replicates). Variant L30E/K36S/S38C gave 130 nM (3 of 3 replicates). Variant L30S/N37A/S38K gave 640 nM (2 of 3 replicates).

With L30M/S38T/S103N the result was 21 µM (2 of 3 replicates). Variant S26A/S38M gave 830 nM (2 of 3 replicates). With S38N/W56L the result was 3.0 nM (3 of 3 replicates). With S28Q/S38A the result was 270 nM (1 of 3 replicates). Variant S38P/W56F/S58F showed nd (0 of 3 replicates). Variant R34C/S38K/W56Q showed 8.1 nM (3 of 3 replicates). With K24M/S38F/W56A the result was nd (0 of 3 replicates). With E32P/S38N the result was 10 nM (3 of 3 replicates).

Extract of 5 entries:

| changes | Kd (apparent) | replicates with signal |
|---|---|---|
| N37D/S38F/T59E | 21 µM | 2 of 3 |
| S38A/S62T/L102M | 150 nM | 3 of 3 |
| K24M/S38F/W56A | nd | 0 of 3 |
| E32P/S38N | 10 nM | 3 of 3 |
| L30F/S38D/A57F | 13 µM | 2 of 3 |

Data: MIT Lincoln Laboratory AlphaSeq set, Engelhart et al. 2022, doi:10.1038/s41597-022-01779-4, as distributed in FLAb.